Laboratory results published in ChEMBL document CHEMBL3808291, “Bifunctional Peptide-Based Opioid Agonist-Nociceptin Antagonist Ligands for Dual Treatment of Acute and Neuropathic Pain” (J Med Chem, 2016).

Sequences of proteins named here, by UniProt entry; tags and fusion partners are left off.
UniProt P35372, whole entry: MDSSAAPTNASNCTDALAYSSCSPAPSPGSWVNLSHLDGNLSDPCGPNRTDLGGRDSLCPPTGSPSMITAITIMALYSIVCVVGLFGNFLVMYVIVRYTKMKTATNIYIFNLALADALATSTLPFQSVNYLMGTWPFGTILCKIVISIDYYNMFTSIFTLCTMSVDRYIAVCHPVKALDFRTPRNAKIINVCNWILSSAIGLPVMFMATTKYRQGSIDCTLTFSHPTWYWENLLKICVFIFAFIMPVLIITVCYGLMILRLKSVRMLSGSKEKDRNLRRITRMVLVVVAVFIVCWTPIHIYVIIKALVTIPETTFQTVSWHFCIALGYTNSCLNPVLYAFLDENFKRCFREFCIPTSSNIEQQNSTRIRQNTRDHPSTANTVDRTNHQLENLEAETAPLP

Target: Mu-type opioid receptor (Homo sapiens) (UniProt P35372)
Experiment: Agonist activity at human mu opioid receptor expressed in CHO cell membrane by [35S]GTPgammaS binding assay relative to control

O=C1Cc2ccccc2N1C1CCN(C2CCC3CCCc4cccc2c43)CC1 (stereo unspecified)
Activity: < 20%
